Results on eight compounds are retold here after ChEMBL document CHEMBL1134652, “N-Methyl scan of somatostatin octapeptide agonists produces interesting effects on receptor subtype specificity” (J Med Chem, 2001).

Protein sequences, listed by entry. Tags and fused reporters are not part of them. Lines headed by an entry give the natural chain unless they say otherwise; changes in a name come on top.
UniProt P32745: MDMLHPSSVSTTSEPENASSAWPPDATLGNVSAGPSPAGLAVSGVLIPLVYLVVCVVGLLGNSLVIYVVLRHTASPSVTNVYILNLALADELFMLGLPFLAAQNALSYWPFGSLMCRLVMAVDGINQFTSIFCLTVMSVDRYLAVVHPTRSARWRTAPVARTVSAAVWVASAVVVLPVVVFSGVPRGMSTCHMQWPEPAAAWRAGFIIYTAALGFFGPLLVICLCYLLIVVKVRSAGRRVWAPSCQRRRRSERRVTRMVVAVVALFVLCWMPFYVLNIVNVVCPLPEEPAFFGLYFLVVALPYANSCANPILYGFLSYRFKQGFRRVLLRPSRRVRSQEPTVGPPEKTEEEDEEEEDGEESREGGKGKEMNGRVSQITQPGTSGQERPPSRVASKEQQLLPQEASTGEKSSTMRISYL

The target of assay [1] is Somatostatin receptor type 3 (Homo sapiens, UniProt P32745). The assay can be described thus: Binding affinity was determined on cloned human somatostatin receptor-1 (hsst3). The procedure, abridged:
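Membranes from transfected CHO-K1 cells expressing the human receptor subtype, incubated 30 min at 37 °C with 0.05 nM [125I]Tyr11-SRIF in 50 mM HEPES pH 7.4 with BSA, MgCl2, Trasylol, bacitracin and PMSF. Binding was stopped by filtration on PEI-soaked GF/C filters. Nonspecific binding was taken with 1.0 μM SRIF. Kd came from concentration-dependent displacement, given as mean ± SEM or a single experiment.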

The species named for another assay is Rattus norvegicus. The assay can be described thus: in vitro Agonist activity (inhibition of growth hormone release) on cultured rat pituitary cells. The class given is functional, cell-based. Particulars: Pituitary gland cell. Summed up:
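Anterior pituitary cells from adult male rats were dispersed with trypsin/DNase and cultured 4–5 days at about 200 000 cells/well. Each dose was run in triplicate wells in medium 199 with 1% BSA and 1 nM GHRH-(1–29)NH2, for 3 h at 37 °C. GH in the medium was measured by double-antibody RIA.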

Structures are written as SMILES.

Broadly, the Kd is the concentration at which binding is half-saturated. Low values mean higher affinity, high ones lower affinity. What is called IC50 is the concentration that inhibits the measured activity by half. Read a low IC50 as inhibition by little substance. `CN[C@@H](Cc1ccc(O)cc1)C(=O)N[C@H]1CSSC[C@@H](C(=O)N[C@H](C(N)=O)[C@@H](C)O)NC(=O)[C@H]([C@@H](C)O)NC(=O)[C@H](CCCCN)NC(=O)[C@@H](Cc2c[nH]c3ccccc23)NC(=O)[C@H](Cc2ccccc2)NC1=O` returned a Kd in assay [1] of 3.01 nM. Also, the IC50 in the assay filed under Rattus norvegicus is 11.3 nM.
`C[C@@H](O)[C@H](NC(=O)[C@@H]1CSSC[C@H](N(C)C(=O)[C@@H](N)Cc2ccc(O)cc2)C(=O)N[C@@H](Cc2ccccc2)C(=O)N[C@H](Cc2c[nH]c3ccccc23)C(=O)N[C@@H](CCCCN)C(=O)N[C@@H]([C@@H](C)O)C(=O)N1)C(N)=O`: the IC50 in the assay listed under Rattus norvegicus amounted to 11.9 nM.
Same read-out and setting: in the case of `C[C@@H](O)[C@H](NC(=O)[C@@H]1CSSC[C@H](NC(=O)[C@H](N)Cc2ccccc2)C(=O)N[C@@H](Cc2ccccc2)C(=O)N(C)[C@H](Cc2c[nH]c3ccccc23)C(=O)N[C@@H](CCCCN)C(=O)N[C@@H]([C@@H](C)O)C(=O)N1)C(N)=O` it was 18.7 nM.
For the compound `C[C@@H](O)[C@H](NC(=O)[C@@H]1CSSC[C@H](NC(=O)[C@H](N)Cc2ccccc2)C(=O)N[C@@H](Cc2ccccc2)C(=O)N[C@H](Cc2c[nH]c3ccccc23)C(=O)N(C)[C@@H](CCCCN)C(=O)N[C@@H]([C@@H](C)O)C(=O)N1)C(N)=O`, in the assay filed under Rattus norvegicus, the concentration for half-maximal inhibition (IC50) stood at 0.74 nM.
With `C[C@@H](O)[C@H](NC(=O)[C@@H]1CSSC[C@H](NC(=O)[C@@H](N)Cc2ccc(O)cc2)C(=O)N(C)[C@@H](Cc2ccccc2)C(=O)N[C@H](Cc2c[nH]c3ccccc23)C(=O)N[C@@H](CCCCN)C(=O)N[C@@H]([C@@H](C)O)C(=O)N1)C(N)=O`, the half-inhibitory concentration (IC50) in the assay listed under Rattus norvegicus is 103 nM.
On the same count and under the same terms, in the case of `C[C@@H](O)[C@H](NC(=O)[C@@H]1CSSC[C@H](NC(=O)[C@@H](N)Cc2ccc(O)cc2)C(=O)N[C@@H](Cc2ccccc2)C(=O)N[C@H](Cc2c[nH]c3ccccc23)C(=O)N[C@@H](CCCCN)C(=O)N[C@@H]([C@@H](C)O)C(=O)N1C)C(N)=O` it was 41.2 nM; in that of `C[C@@H](O)[C@H](NC(=O)[C@@H]1CSSC[C@H](NC(=O)[C@H](N)Cc2ccccc2)C(=O)N(C)[C@@H](Cc2ccccc2)C(=O)N[C@H](Cc2c[nH]c3ccccc23)C(=O)N[C@@H](CCCCN)C(=O)N[C@@H]([C@@H](C)O)C(=O)N1)C(N)=O`, 7.29 nM; in that of `CN[C@H](Cc1ccccc1)C(=O)N[C@H]1CSSC[C@@H](C(=O)N[C@H](C(N)=O)[C@@H](C)O)NC(=O)[C@H]([C@@H](C)O)NC(=O)[C@H](CCCCN)NC(=O)[C@@H](Cc2c[nH]c3ccccc23)NC(=O)[C@H](Cc2ccccc2)NC1=O`, 0.32 nM.
